According to patent publication US20240000754A1, “METHODS OF TREATMENT OF LIVER FAILURE” (GENFIT, priority 2020, published 2024):

Test system: hepatic transcriptome of mice
Assay: Hepatic transcriptomic analysis (RNA-seq) in CDAA/c diet-fed mice treated with NTZ
Type: in vivo
Settings: NTZ + CDAA/c versus CDAA/c; liver mRNA; NTZ 100 mg/kg/day in diet, 12 weeks
Description: Liver injury was induced in 5-6 week-old male C57Bl/6 mice (Janvier Labs, France) by feeding them a cholesterol (1%) supplemented choline-deficient L-amino acid-defined diet (CDAA/c) (Ssniff, Germany) for 12 weeks (n=12). Some animals received from day 1 and throughout the study CDAA/c diet supplemented with NTZ (Interchim, France) (100 mg/kg/day) (n=8). Mice receiving choline supplemented L-amino acid-defined (CSAA) diet served as additional controls (n=6).
Total RNA was isolated from mice livers using Nucleospin® 96 RNA kit (ref 740709.4, Macherey Nagel, France) (n=5). Upon measurement of RNA samples concentration by Multiskan™ GO spectrophotometer (Thermo Scientific, France), the quality was assessed using 2100 Bioanalyser from Agilent (USA). Libraries were prepared using the Illumina TruSeq stranded mRNA LT kit (Ref RS-122-2101, Illumina, USA) and mRNA were sequenced using a NextSeq 500 device (paired-end sequence, 2×75 bp), with a High Output flow cell (ref FC-404-2002—NextSeq® 500/550 High Output Kit v2 (150 cycles), Illumina, USA).
Reads were cleaned using Trimmomatic v.0.36 with the following parameters: SLIDINGWINDOW: 5:20 LEADING: 30 TRAILING: 30 MINLEN: 60 (Bolger et al., Bioinformatics, 2014). Then reads were aligned on the genome reference (Mus musculus GRCm38.90—GenBank assembly accession GCA_000001635.2) with rnacocktail using hisat2 v.2.1.0 as aligner with default parameters (Sahraeian et al. Nature communications 2017).
A count table was produced using featureCounts v1.5.3 with default parameters (Liao Y et al. Bioinformatics 2014).
To identify differentially expressed genes (DE genes), we used R (version 3.4.3) and the DESEq2 library (v. 1.18.1). Gene annotations were retrieved using the AnnotationDbi library (v. 1.40.0). Briefly, the count matrix produced by FeatureCounts was analyzed by the DESeqDataSetFromMatrix( ) function followed by the DEseq( ) function from the DESeq2 library. For each condition (ie comparison NTZ+CDAA/c vs CDAA/c), the fold change and the p-value were retrieved using the results( ) function from DESeq2.

`CC(=O)Oc1ccccc1C(=O)Nc1ncc([N+](=O)[O-])s1` [NTZ, nitazoxanide] was tested, and the “Fold change (log2) Abat” value was 0.792 log2, the “Fold change (log2) Abcc4” value was 1.354 log2 and the “Fold change (log2) Arhgef26” value was 1.108 log2. For the same compound, the “Fold change (log2) Ctsk” value was −0.930 log2, the “Fold change (log2) Glul” value was 0.672 log2 and the “Fold change (log2) Gsta2” value was 1.652 log2. The “Fold change (log2) Ldhd” value was 0.659 log2, the “Fold change (log2) Prodh” value was 0.756 log2 and the “Fold change (log2) Slc1a2” value was 0.820 log2. For the same compound, the “Fold change (log2) Sugct” value was 0.664 log2.
